Laboratory results as given in US8389019B2, “Method for improving the quality of meat by reducing boar taint” (priority 2007, dated 2013).

Test system: testis
Assay: Example 2: beagle puppy injected in each testis, testes excised at 30 months
Format: in vivo, beagle dog
Conditions: 0.25 ml per testis, sacrificed at 30 months; control 30 lbs
Description: A beagle puppy weighing 19 lbs at six months of age was injected in each testis with 0.25 ml of a chemical sterilant containing 13.1 mg/ml of zinc as zinc gluconate neutralized by 34.8 mg/ml of l-arginine with the pH adjusted to 7.0 with hydrochloric acid. The injection was into the dorsal cranial portion of the testis as could best be estimated externally.
The treated animal was sacrificed at 30 months of age when he weighed 31 lbs. The testes were excised and each weighed 3.5 g.
A control beagle weighing 18 lbs at six months was housed with the treated animal. This animal was also sacrificed at 30 months. The control dog weighed 30 lbs and each testis weighed 6.8 g. A histological section of the rete testis of the control animal was taken and a light micrograph of the section at 10× is shown in FIG. 2.

## zinc gluconate neutralized by arginine
  body weight at sacrifice: 31 lbs
